SMILES strings stand for the structures. Entries after “also recorded” stand apart in the source; their conditions may differ.

Test [1] has as its system CaMN. Conditions: physiological conditions; cited from earlier work. The source says:
On the basis of previous binding data ([14], [18]), the C-lobe under basal conditions is predicted to bind two Ca^2+ to form a half-calcified state (called Ca2/CaM) in which the N-lobe is devoid of Ca^2+ ([19]). […] Using the binding constants from ([14], [18]) the relative concent ... || Figure 2 Apparent Ca^2+-binding affinity of the CaM N-lobe bound to IQ (CaMN-IQ). […] K1 and K2 are assigned here to the complex formed and K3 to the complex that dissociates; this choice of label is uncertain. / The numbers (18) and (14) printed after the equations look like citation numbers, not compound numbers, and were left out.

For test [2], the target named is apoCaM (Xenopus laevis, UniProt P0DP33). To be noted: ITC, absence of salt; cited from earlier work. The source says:
CaV1.2 is the main L-type channel in heart, blood vessels, and brain ([1], [2]). Ca^2+ influx through CaV1.2 triggers cardiac contraction, regulates arterial tone ([1]), mediates synaptic long-term potentiation ([3], [4]), controls neuronal excitability ([5]), and mediates Ca^2+-dependent gene expression ([6]). Defects in inactivation of CaV1.2 cause Timothy syndrome, a rare congenital abnormality leading to lethal arrhythmias, autistic-like behaviors, and immune deficiency ([7]).

Test [3] concerns the target T1, Ca2/CaM12’ (Xenopus laevis, UniProt P0DP33, D21A/D23A/D25A/D57A/D59A/E32Q/E68Q/N61A).
T1 construct: made in house; host or cells: E. coli BL21(DE3) Codon Plus, pET11d
As to the kind of experiment: NMR of Ca2/CaM12’-IQ. It is filed as binding. Conditions: 303 K. The source says: The CaM12’ mutation ((D21A/D23A/D25A/E32Q/D57A/D59A/N61A/E68Q) was introduced into Xenopus CaM complementary DNA by PCR QuickChange procedure ([39]). The mutated complementary DNA was inserted into the NcoI/BamHI sites of a pET11d vector and verified by automated Sanger sequencing. The recombinant CaM12’ protein was expressed from a pET11d vector in a BL21(DE3) Codon Plus Escherichia coli strain (Stratagene) and purified as described previously ([40]). The CaV1.2 IQ peptide (residues 1644–1664) was purchased from ChinaPeptides. The peptide was dissolved in d6-dimethyl sulfoxide to give a peptide concentration of 7.8 mM. The peptide concentration was determined by measuring absorbance at 280 nm with ε280 = 2980 M^−1 cm^−1. […]
All NMR measurements were performed at 303 K using a Bruker Avance III 600 MHz spectrometer equipped with a four-channel interface and triple-resonance cryoprobe. […] Two-dimensional NMR experiments (heteronuclear single quantum coherence [HSQC] and HSQC-IPAP) were recorded on samples of ^15N-labeled Ca2/CaM12’ (0.5 mM) bound to unlabeled IQ (0.75 mM). […] Three-dimensional NMR experiments for assigning backbone and side-chain resonances, and NOESY distance restraints were analyzed as described previously ([42]). NMR data were processed using NMRPipe ([43]) and analyzed with SPARKY (Goddard T.D. and Kneller D.G., University of California at San Francisco). […]

Test [4] deals with CaMC. Conditions: Figure 1; dissociation of CaMC-IQ; read-out: K3; cited from earlier work. The source says: (§1) Figure 1 Apparent Ca^2+-binding affinity of the CaM C-lobe bound to IQ (CaMC-IQ).
In test [5] the test system is Ca2/CaMC. To be noted: Figure 1; cited from earlier work.
Text: as §1

Test [6] concerns the target T1, Ca2/CaM12’. As to the kind of experiment: ITC of Ca2/CaM12’ binding to IQ peptides. Conditions: for ΔH: SD from three independent trials.
The target of test [7] is T1, Ca2/CaM12’. As to the kind of experiment: Fluorescence polarization, Ca2/CaM12’ binding to fluorescein-labeled IQ peptides. To be noted: Fig. 4F compared to apoCaM of refs 14, 15. The source says: The NMR structure of Ca2/CaM12’-IQ (Fig. 4D) looks quite different from the recent NMR structure of apoCaM bound to IQ ([15]). In the apoCaM-IQ structure, K1662 forms intermolecular salt bridges with CaM residues, E85 and E88. […] This analysis predicts that the CaV1.2 mutation K1662E weakens binding to apoCaM more than it does to Ca2/CaM12’. […] The free concentrations of Ca2/CaM12’ ([Ca2/CaM12^′]free=[Ca2/CaM12^′]total−[IQ]×(fractionalsaturation)) are within the sample noise level during the first half of the titration when [Ca2/CaM12^′]free<100nM (see SD bars in Fig. 4F). […]
Fluorescein-labeled peptides (100 nM; ChinaPeptides) were titrated with increasing concentrations of purified Ca2/CaM12’ in FP buffer (20 mM Tris, pH 7.4, 100 mM KCl, 1 mM MgCl2, 1.0 mM CaCl2) or apoCaM in Ca^2+-free buffer (20 mM Tris, pH 7.4, 100 mM KCl, 1 mM MgCl2, 2.0 mM EGTA). FP was measured with a Synergy 2 plate reader (BioTek) as described ([52]). FP was calculated as P = (Iv - g∗Ih)/(Iv + g∗Ih); Iv and Ih are vertical and horizontal fluorescence intensity, respectively, and g is the correction factor for fluorescein. To obtain binding curves and KD values, data were fitted in GraphPad Prism 5 (GraphPad Software Inc) to the equation Y = B∗X/(Kd + X); B is maximal FP value that would be reached at saturation as determined by extrapolation of the fitted curve.
(Polarisation of emitted light reports the rotation of a fluorescent probe.)

With `CC[C@H](C)[C@H](NC(=O)[C@H](CC(C)C)NC(=O)[C@H](Cc1ccccc1)NC(=O)[C@@H](NC(=O)[C@H](C)NC(=O)[C@H](Cc1ccc(O)cc1)NC(=O)[C@H](Cc1ccccc1)NC(=O)[C@H](CCCCN)NC(=O)CNC(=O)[C@@H](NC(=O)[C@@H](N)[C@@H](C)O)C(C)C)[C@@H](C)O)C(=O)N[C@@H](CCC(N)=O)C(=O)N[C@@H](CCC(=O)O)C(=O)N[C@@H](Cc1ccc(O)cc1)C(=O)N[C@@H](Cc1ccccc1)C(=O)N[C@@H](CCCNC(=N)N)C(=O)N[C@@H](CCCCN)C(=O)N[C@@H](Cc1ccccc1)C(=O)N[C@@H](CCCCN)C(=O)N[C@@H](CCCCN)C(=O)N[C@@H](CCCNC(=N)N)C(=O)O` [IQ^WT], the “binding of IQ to apoCaM N-lobe” value in test [1] is “does not bind to IQ”. Also, the affinity result in test [2] is “submicromolar affinity”. Further, the “NMR structural finding on the IQ peptide in the complex” value in test [3] (Tris-d11 pH 7.5, 1.0 mM CaCl2) is “make extensive contacts with CaM C-lobe residues (E85, A89, F93, M110, L113, M125)”; in test [3] (Tris-d11 pH 7.5, 1.0 mM CaCl2, listed as IQ peptide), “does not make any contacts with the Ca^2+-free N-lobe; also recorded: helical conformation”. Also, the Kd in test [4] was 10 µM. Also, in test [5], the K2 is 10^7 M^-1. Besides, the ΔH in test [6] (27 °C) is -10 kcal/mol; in test [6] (37 °C), -15 kcal/mol. For the same compound, the “predicted KD increase when temperature is increased from 27 °C to 37 °C” value in test [6] (predicted from ΔH°) was 2.3 fold. Moreover, in test [7], the “affinity for Ca2/CaM compared to apoCaM” value was “at least 100 fold”.

These data come from article PMC9764201, “Half-calcified calmodulin promotes basal activity and inactivation of the L-type calcium channel CaV1.2” (The Journal of Biological Chemistry, 2022).
